Reference: publication PMC3448668, “Insulin-Like Growth Factor-I E-Peptide Activity Is Dependent on the IGF-I Receptor” (PLoS ONE, 2012)

Sequences of proteins named here, by UniProt entry; tags and fusion partners are left off. Residues count along the entry.
UniProt P08069, 31-1367: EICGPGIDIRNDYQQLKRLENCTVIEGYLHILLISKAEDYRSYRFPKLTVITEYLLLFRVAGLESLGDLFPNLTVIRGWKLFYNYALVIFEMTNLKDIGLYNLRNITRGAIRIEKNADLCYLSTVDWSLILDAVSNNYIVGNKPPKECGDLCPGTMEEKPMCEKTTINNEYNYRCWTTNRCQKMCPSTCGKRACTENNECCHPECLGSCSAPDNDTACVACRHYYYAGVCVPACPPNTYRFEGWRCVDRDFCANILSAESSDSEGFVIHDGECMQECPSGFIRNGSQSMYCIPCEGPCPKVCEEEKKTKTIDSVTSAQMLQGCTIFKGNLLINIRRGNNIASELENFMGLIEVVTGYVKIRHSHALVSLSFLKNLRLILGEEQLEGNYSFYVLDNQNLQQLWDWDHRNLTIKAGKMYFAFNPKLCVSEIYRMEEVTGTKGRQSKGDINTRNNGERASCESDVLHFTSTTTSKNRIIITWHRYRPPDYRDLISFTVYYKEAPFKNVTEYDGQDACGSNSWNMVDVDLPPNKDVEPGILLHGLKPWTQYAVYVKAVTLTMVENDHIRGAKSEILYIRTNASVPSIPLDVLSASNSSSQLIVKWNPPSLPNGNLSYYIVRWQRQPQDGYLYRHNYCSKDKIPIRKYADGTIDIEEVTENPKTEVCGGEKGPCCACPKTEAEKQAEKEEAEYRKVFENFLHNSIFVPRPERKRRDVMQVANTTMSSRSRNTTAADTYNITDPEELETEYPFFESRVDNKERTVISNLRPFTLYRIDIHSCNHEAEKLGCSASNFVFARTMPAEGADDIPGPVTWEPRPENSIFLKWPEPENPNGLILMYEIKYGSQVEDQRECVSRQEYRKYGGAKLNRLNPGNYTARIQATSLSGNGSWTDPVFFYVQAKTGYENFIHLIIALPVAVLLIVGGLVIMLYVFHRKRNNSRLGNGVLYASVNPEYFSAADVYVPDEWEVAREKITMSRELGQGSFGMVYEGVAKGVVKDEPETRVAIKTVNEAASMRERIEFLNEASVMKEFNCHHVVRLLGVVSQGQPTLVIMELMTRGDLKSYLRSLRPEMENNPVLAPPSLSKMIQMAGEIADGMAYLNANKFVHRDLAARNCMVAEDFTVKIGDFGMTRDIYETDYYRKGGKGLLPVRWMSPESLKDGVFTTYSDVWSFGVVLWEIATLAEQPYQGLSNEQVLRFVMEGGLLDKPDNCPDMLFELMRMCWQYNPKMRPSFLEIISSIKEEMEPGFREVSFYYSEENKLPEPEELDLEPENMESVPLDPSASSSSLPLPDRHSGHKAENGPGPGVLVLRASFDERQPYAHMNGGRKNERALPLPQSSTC

Biological target: T1, IGF-IR phosphorylation in P6 cells overexpressing IGF-IR (Homo sapiens, UniProt P08069)
T1 construct: expressed in transfected cells; host or cells: P6 cells (IGF-IR over-expressing mouse fibroblasts, kept under G418)
Experiment: Kinase receptor activation (KIRA) assay
Assay type: cell-based, mouse
Settings: 15 min, IGF-I 2 nM and 10 nM, N = 6 wells
Method: To determine if E-peptides directly activate IGF-IR, a KIRA assay was preformed as previously described with a few alterations. Briefly, 2.5×10^4 P6 cells, which overexpress IGF-IR (another kind gift from the Baserga lab) were seeded into 96-well plates. They were maintained in growth media supplemented with 200 µg/ml G418. The cells were starved for 6 hours, and then treated with synthetic E-peptides and/or IGF-I for 15 minutes. Cells were lysed and IGF-IR was captured onto an ELISA plate coated with an antibody to IGF-IR (MAB1120, Millipore, Billerica, MA). An HRP-conjugated antibody to phosphorylated tyrosines (16–454, Millipore) and TMB substrate (N301, Thermo Scientific, Rockfort, IL) was used for colorimetric quantification. Absorbance was read at 450 nm via the SpectraMax M5 plate reader (Molecular Devices, Sunnyvale, CA), which served as an indicator of IGF-IR phosphorylation. The IGF-IR localization assay was based on, [75], [76] and preformed as described above, except after treatment and before lysis, cell surface proteins were labeled with 0.3 mg/ml sulfo-NHS-biotin (21217, Thermo Scientific, Rockfort, IL) in PBS for 1 hour at 4°C. Two ELISA plates coated as above were utilized. Half of the cell lysates were transferred to one plate to measure cell-surface IGF-IR, visualized by an HRP-conjugated strepavidin antibody. […]

Substance: IGF-I: recombinant human IGF-I (Gemini Bio-Products), positive control
- IGF-IR phosphorylation by IGF-I alone (KIRA): stimulated IGF-IR phosphorylation dramatically and significantly
